The compounds below were run on Mtb H37Rv. Conditions: anti-TB activity of KAN against Mtb H37Rv with compound at concentration tested (100-fold IC50 or 100 μM); Example 3.
Format: cell-based

Compound | H37Rv MICKAN
CN(c1ccc(Br)cc1)S(=O)(=O)c1ccc2[nH]c(=O)c(=O)[nH]c2c1 [Compound 29] | ≤1.25 µg/mL
O=c1[nH]c2ccc(S(=O)(=O)Nc3ccc(Br)cc3)cc2[nH]c1=O [Compound 30] | ≤1.25 µg/mL
CN(c1ccccc1)S(=O)(=O)c1ccc2[nH]c(=O)c(=O)[nH]c2c1 [Compound 31] | ≤1.25 µg/mL
O=c1[nH]c2ccc(S(=O)(=O)Nc3ccccc3)cc2[nH]c1=O [Compound 32] | ≤1.25 µg/mL
CC(C)c1ccc(N(C)S(=O)(=O)c2ccc3[nH]c(=O)c(=O)[nH]c3c2)cc1 [Compound 33] | ≤1.25 µg/mL
CC(C)c1ccc(NS(=O)(=O)c2ccc3[nH]c(=O)c(=O)[nH]c3c2)cc1 [Compound 34] | ≤1.25 µg/mL
CN(c1ccc(Cl)cc1)S(=O)(=O)c1ccc2[nH]c(=O)c(=O)[nH]c2c1 [Compound 35] | ≤1.25 µg/mL
COc1ccccc1N(C)S(=O)(=O)c1ccc2[nH]c(=O)c(=O)[nH]c2c1 [Compound 36] | ≤1.25 µg/mL
CN(c1cccc(F)c1)S(=O)(=O)c1ccc2[nH]c(=O)c(=O)[nH]c2c1 [Compound 37] | ≤1.25 µg/mL
CN(c1cccc(Br)c1)S(=O)(=O)c1ccc2[nH]c(=O)c(=O)[nH]c2c1 [Compound 38] | ≤1.25 µg/mL
COc1cccc(N(C)S(=O)(=O)c2ccc3[nH]c(=O)c(=O)[nH]c3c2)c1 [Compound 39] | ≤1.25 µg/mL
COc1cc(OC)cc(N(C)S(=O)(=O)c2ccc3[nH]c(=O)c(=O)[nH]c3c2)c1 [Compound 40] | ≤1.25 µg/mL
Cc1cccc(N(C)S(=O)(=O)c2ccc3[nH]c(=O)c(=O)[nH]c3c2)c1 [Compound 41] | ≤1.25 µg/mL
CCc1cccc(N(C)S(=O)(=O)c2ccc3[nH]c(=O)c(=O)[nH]c3c2)c1 [Compound 42] | ≤1.25 µg/mL
CC(C)c1cccc(N(C)S(=O)(=O)c2ccc3[nH]c(=O)c(=O)[nH]c3c2)c1 [Compound 43] | ≤1.25 µg/mL
CCCCc1cccc(N(C)S(=O)(=O)c2ccc3[nH]c(=O)c(=O)[nH]c3c2)c1 [Compound 44] | ≤1.25 µg/mL
CN(c1cccc(C(C)(C)C)c1)S(=O)(=O)c1ccc2[nH]c(=O)c(=O)[nH]c2c1 [Compound 45] | ≤1.25 µg/mL
COc1cc(N(C)S(=O)(=O)c2ccc3[nH]c(=O)c(=O)[nH]c3c2)cc2ccccc12 [Compound 47] | ≤1.25 µg/mL

Same assay, conditions: anti-tubercular activity of KAN against Mtb H37Rv with compound at 100-fold IC50 or 100 μM; Example 2

Compound | H37Rv MICKAN
O=C(C[N+]1=C(c2ccc(F)c(F)c2)c2cccn2CC1)c1cccc(Cl)c1.[Br-] [Compound 3d] | ≤1.25 µg/mL

Source: US10253035B2 (priority 2016, dated 2019)
